# pKd: −log10 of the molar value. Several values for one entry are separate records, joined by “and”; a condition that tells them apart may be missing. Equal entries are not always repeated.
# Amino acid sequences for entries named in this document (tags omitted). A change or cut given only in a name is not applied to a line headed by its entry.
# UniProt P30543, whole entry: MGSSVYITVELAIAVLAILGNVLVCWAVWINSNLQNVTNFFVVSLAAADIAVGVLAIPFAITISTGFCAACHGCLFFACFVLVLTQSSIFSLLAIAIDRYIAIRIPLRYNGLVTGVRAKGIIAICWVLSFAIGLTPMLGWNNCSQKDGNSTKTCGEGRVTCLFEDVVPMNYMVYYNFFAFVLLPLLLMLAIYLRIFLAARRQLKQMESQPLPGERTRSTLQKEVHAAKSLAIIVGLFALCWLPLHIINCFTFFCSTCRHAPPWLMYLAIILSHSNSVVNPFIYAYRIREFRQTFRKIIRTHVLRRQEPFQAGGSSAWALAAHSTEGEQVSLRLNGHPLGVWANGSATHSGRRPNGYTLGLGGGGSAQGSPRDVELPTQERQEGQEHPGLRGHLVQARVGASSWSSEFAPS
# Target: rat striatum adenosine A2A receptor (Rattus norvegicus, UniProt P30543)
# Test: adenosine A2A receptor ligand binding test ([3H]MSX-2)
structure (smiles),measurement,setting,value
C#CCn1c(=O)c2c(nc(/C=C/c3cccc(OC)c3)n2C)n(CCCO)c1=O,pKd,"read-out: equilibrium dissociation constant Kd of A2A binding, saturation curve, Scatchard, tested as the radiolabelled form",7.96 and 7.94
same,Bmax of A2A binding,"saturation curve, Scatchard, tested as the radiolabelled form",5235 fmol/mg and 5657 fmol/mg

# From patent US10479814B2, “Adenosine receptor activation reagent and the uses of thereof” (Zhejiang Subtropical Crops Research Institute, priority 2014, dated 2019)
